Experiment: in vitro
Details: human, microsomes, pH 7.4

Compound: COc1ccc(S(=O)(=O)n2cc(C)c3ccc(Br)cc32)cc1N1CCNCC1 [Example 68, 6-bromo-1-((4-methoxy-3-(piperazin-1-yl)phenyl)sulfonyl)-3-methyl-1H-indole]
- CLint scaled: 25 mL/min/kg

Source: patent publication US9663498B2 (priority 2013, dated 2017)
